In PMC11503540, “Development of a pharmacological evidence‐based anticholinergic burden scale for medications commonly used in older adults” (Geriatrics & Gerontology International, 2023):

Each compound was assayed against T1, muscarinic receptor (rat brain) (assay: [3H]NMS displacement, rat brain membranes, filtration). Conditions: [3H]NMS 0.3 nM (0.5 nM in data analysis), 30 mM Na+/HEPES pH 7.5, 25 °C, 60 min; competitive.
T1 construct: gene Chrm1; native receptors in particulate (40 000 g pellet) preparation of whole brain without cerebellum; subtype mixture not resolved
Type: binding

Compared with `OC(CCN1CCCCC1)(c1ccccc1)C1CCCCC1` (stereo not shown) [Trihexyphenidyl], `OCCOCCN1CCN(C(c2ccccc2)c2ccc(Cl)cc2)CC1` (stereo not shown) [Hydroxyzine] is 880-fold higher in IC50: 10.4 nM for the first, 9120 nM for the second. The first is the more potent here.

First: CC(CN1c2ccccc2Sc2ccccc21)N(C)C (stereo not shown) [Promethazine]
Second: COc1ccc2c(c1)N(C[C@H](C)CN(C)C)c1ccccc1S2 [Levomepromazine]
The IC50 of the first is 9.3-fold lower: 42.3 nM for the first, 394 nM for the second.

Going from `Cc1nccn1CCC(C(N)=O)(c1ccccc1)c1ccccc1` [Imidafenacin] to `CC(C)[N+](C)(CCOC(=O)C1c2ccccc2Oc2ccccc21)C(C)C` [Propantheline], the IC50 falls from 3.66 nM to 0.12 nM (31-fold).

Going from `OCCN1CCN(CCCN2c3ccccc3Sc3ccc(Cl)cc32)CC1` [Perphenazine] to `CN(C)CC/C=C1/c2ccccc2COc2ccc(CC(=O)O)cc21` [Olopatadine], the IC50 rises from 7000 nM to 25100 nM (3.6-fold).

Compared with `C=C[C@H]1CN2CC[C@H]1C[C@@H]2[C@@H](O)c1ccnc2ccc(OC)cc12` [Quinidine], `Fc1ccc([C@@H]2CCNC[C@H]2COc2ccc3c(c2)OCO3)cc1` [Paroxetine] is 82-fold lower in IC50: 44600 nM for the first, 545 nM for the second.
